Data on 2 molecules can be found in US20040097529A1, “Novel use of arylethene sulfonamide derivative” (priority 2001, published 2004).

Values joined by “and” are separate entries in the source; they are usually repeats but may differ in a detail not shown here. Identical values can stand only once.

The test system of experiment [1] is rat's glomerular mesangial cells. An excerpt: The results were indicated by the mean±error. […] When the significant level is less than 5%, it is considered as a significant difference.
Experiment [2] has as its system spontaneously hypertensive rats (SHR). The settings on record: rat, in vivo.
Experiment [3] concerns chronic renal failure (5/6Nx) rats. As to conditions: rat, in vivo, po, 1 mg/kg/day. As for the experimental part: Male Wistar rats of 8 weeks of age were used in the experiment. A Rat was anesthetized with petobarbital and ⅔ of the left kidney was cut off, and one week after the right kidney was removed completely. Two weeks after the ⅚ nephrectomy, systolic blood pressure (SBP) was measured by a tail-cuff method, and the urine was collected in a metabolic cage for 24 hours to measure the urinary protein excretion. Rats were divided into 3 groups (each group: n=9) so that no difference occurred between the respective groups. Thereafter, a solvent (0.5% MC) was orally administered to the ⅚Nx-Cont. group at a dose of 5 ml/kg over 8 weeks. […] Similarly, to the ⅚Nx-Ena. group was administered 10 mg/kg/day of enalapril maleate dissolved in a solvent (0.5% MC). On the other hand, the solvent (0.5% MC) alone was orally administered to the abdominal-sectioned rats as a control group (Sham). Every 2 weeks, the urine was collected for 24 hours to measure the urinary protein excretion. Additionally, every 4 weeks, SBP was measured to examine the effect on the blood pressure.
The results were indicated by the mean±error. In comparison between the Sham group and the ⅚Nx-Cont. group, a t-test was made without correspondence, and when the significant level is less than 5%, it is considered as a significant difference. […]

Experiment [4] has as its system diabetic rats induced by streptozotocin (STZ). Description: Effect on the blood parameter and urinary parameter in diabetic rats induced by streptozotocin (STZ). Type of experiment: in vivo, Wistar (Crj) rats. Here is the method:
Wistar (Crj) rats of 9 weeks of age were divided into 5 groups so that there was no bias in urinary albumin excretion. To the 4 groups of the rats was administered intravenously STZ (50 mg/kg). […] After the lapse of 2, 4 and 6 weeks from the start of administration, urine was collected for 24 hours in a metabolic cage to measure a urinary parameter. The blood was collected from the tail vein after 2 and 4 weeks and from the abdominal aorta under anesthesia after 6 weeks to measure a blood parameter.
The results were indicated by the mean±error. In comparison between the Sham group and the STZ-Cont. group, a t-test was made without correspondence, and when the significant level is less than 5%, it is considered as a significant difference. In comparison between the STZ-dose groups of rats, multiple comparison (Dunnett's test) was made respectively without correspondence following the variance analysis of one-way classification. When the significant level is less than 5%, it is considered as a significant difference.

Where [5] appears, read: Compound 1 0.1 mg/kg p.o., 4 weeks.
Where [6] appears, read: Compound 1 1 mg/kg p.o., 4 weeks.

`COc1ccccc1Oc1c(NS(=O)(=O)C=Cc2ccccc2)nc(-c2ncccn2)nc1OC` [Compound 1, N-[6-Methoxy-5-(2-methoxyphenoxy)-2-(pyrimidin-2-yl)pyrimidin-4-yl]-2-phenylethenesulfonamide]: the “inhibition of the growth of rat's cultured mesangial cells induced by ET-1” value in experiment [1] is on record as “inhibited the growth”. Moreover, in experiment [2], the “effect on the blood pressure” value is listed as “no effect was observed”. The “effect on the heart rate” value in experiment [2] is reported as “no effect was observed”. For the same molecule, in experiment [3], the Systolic blood pressure is 135 ± 6 mmHg and 142 ± 6 mmHg and 139 ± 5 mmHg. Further, the “hypotensive effect (SBP)” value in experiment [3] is given as “no significant hypotension was observed”. For the same molecule, the Blood glucose level came to 357.1 ± 14.5 mg/dL in experiment [4] (Compound 1 0.1 mg/kg p.o. once a day, 2 weeks); 396.0 ± 19.4 mg/dL in experiment [4] (Compound 1 0.1 mg/kg p.o. once a day, 4 weeks); 417.8 ± 14.6 mg/dL in experiment [4] (Compound 1 0.1 mg/kg p.o. once a day, 6 weeks); 381.7 ± 12.9 mg/dL in experiment [4] (Compound 1 1 mg/kg p.o. once a day, 2 weeks); 376.2 ± 19.6 mg/dL in experiment [4] (Compound 1 1 mg/kg p.o. once a day, 4 weeks); 367.1 ± 12.2 mg/dL in experiment [4] (Compound 1 1 mg/kg p.o. once a day, 6 weeks). Further, the Urinary albumin excretion was determined as 0.45 ± 0.03 mg/day in experiment [4] (Compound 1 0.1 mg/kg p.o., 0 week); 1.03 ± 0.07 mg/day in experiment [4] (Compound 1 0.1 mg/kg p.o., 2 weeks); 0.74 ± 0.13 mg/day in experiment [4] (setting [5]); 1.37 ± 0.19 mg/day in experiment [4] (Compound 1 0.1 mg/kg p.o., 6 weeks); 0.50 ± 0.05 mg/day in experiment [4] (Compound 1 1 mg/kg p.o., 0 week); 0.67 ± 0.05 mg/day in experiment [4] (Compound 1 1 mg/kg p.o., 2 weeks). The Urinary albumin excretion in experiment [4] (setting [6]) turned out to be 0.46 ± 0.05 mg/day; in experiment [4] (Compound 1 1 mg/kg p.o., 6 weeks), 1.03 ± 0.12 mg/day. In addition, the Blood cholesterol level in experiment [4] (setting [5]) stood at 247.5 ± 29.8 mg/dL; in experiment [4] (setting [6]), 158.1 ± 14.7 mg/dL. In addition, the values for the Blood triglyceride level in experiment [4] (setting [5]) and in experiment [4] (setting [6]) were 866.6 ± 97.5 mg/dL and 494.0 ± 55.8 mg/dL, respectively. In addition, the “urinary albumin excretion (UAE) change” value in experiment [4] (Compound 1 0.1 and 1 mg/kg p.o., after 2, 4 and 6 weeks) is listed as “made UAE decrease dose-dependently”.
On to `COc1ccccc1Oc1c(NS(=O)(=O)C=Cc2ccccc2)nc(-c2ncccn2)nc1OC` [Compound A, N-[6-Methoxy-5-(2-methoxyphenoxy)-2-(pyrimidin-2-yl)pyrimidin-4-yl]-2-phenylethenesulfonamide], for which the “effect on the blood pressure” value in experiment [2] is on record as “did not change the systemic blood pressure”.
